Laboratory results: PubChem BioAssay AID687016 (The Scripps Research Institute Molecular Screening Center, 2013)
The list shows a part of the results, in another mix than the full data. Activity calls are given as the source filed them. No stated cut-off is given here; in the data, active means inhibition above about 21%; inactive means the rest.

Chains of the proteins cited; added tags and fusions are not shown.
UniProt Q96T88, whole entry: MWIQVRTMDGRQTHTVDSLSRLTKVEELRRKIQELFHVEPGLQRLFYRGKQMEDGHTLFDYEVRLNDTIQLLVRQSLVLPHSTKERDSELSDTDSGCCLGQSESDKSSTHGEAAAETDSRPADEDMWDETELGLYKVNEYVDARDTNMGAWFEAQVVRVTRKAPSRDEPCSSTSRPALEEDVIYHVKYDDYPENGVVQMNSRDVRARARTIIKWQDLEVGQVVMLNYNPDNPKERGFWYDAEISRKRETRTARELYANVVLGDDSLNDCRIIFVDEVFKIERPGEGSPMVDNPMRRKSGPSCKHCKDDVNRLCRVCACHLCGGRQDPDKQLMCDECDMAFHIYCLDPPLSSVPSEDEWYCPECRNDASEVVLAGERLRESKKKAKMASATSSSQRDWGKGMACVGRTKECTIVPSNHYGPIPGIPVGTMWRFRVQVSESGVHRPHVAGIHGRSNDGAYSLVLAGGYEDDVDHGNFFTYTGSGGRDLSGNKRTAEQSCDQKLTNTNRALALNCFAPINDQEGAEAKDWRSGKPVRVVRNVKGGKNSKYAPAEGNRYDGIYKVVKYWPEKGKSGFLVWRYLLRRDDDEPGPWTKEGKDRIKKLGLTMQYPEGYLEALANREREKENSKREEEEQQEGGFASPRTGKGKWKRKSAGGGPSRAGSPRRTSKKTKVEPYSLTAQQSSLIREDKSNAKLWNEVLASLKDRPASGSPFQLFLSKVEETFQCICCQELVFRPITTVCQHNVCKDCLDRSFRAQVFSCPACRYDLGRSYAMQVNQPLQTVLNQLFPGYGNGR

Molecular target: E3 ubiquitin-protein ligase UHRF1 (Homo sapiens) (UniProt Q96T88)
Test: UHRF1 methylated DNA binding inhibitors, primary screen, counter-screen for MBD2 inhibitor project, biochemical, TR-FRET, human UHRF1, single concentration (AID 687016);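 further: UHRF1 SRA domain binding a hemimethylated CpG hairpin DNA probe; 0% = median of test compound wells and 100% = reference inhibitor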
Settings: UHRF1 binding to methylated oligo, at 4.4 µM, active compounds read high

Compound | inhibition
O=c1[nH]c2ccccc2n1C1CCN(C(c2cc3ccccc3o2)c2nnnn2C2CCCC2)CC1 (stereo unspecified) | inactive: 1.31%
CCCOc1ccc(C(=O)NCC2(N(C)C)CCCCC2)cc1 | inactive: 0.69%
CC(C)(C)OC(=O)N1CCC(Nc2ccccc2)CC1 | inactive: 4.63%
O=C(O)C1(Nc2ccccc2)CCN(Cc2ccccc2)CC1 | inactive: -1.28%
NN(c1ccccc1)C1CCN(CCc2ccccc2)CC1 | inactive: -1.93%
CCOc1ncccc1C(=O)NCC1(N2CCOCC2)CCCCC1 | inactive: 4.25%
CN1CCC(Nc2ccc(F)c(Cl)c2)CC1 | inactive: 1.42%
CN1CCC(Nc2ccc(Cl)cc2)CC1 | inactive: -1.59%
CCC(CO)(C(=O)OC1CN2CCC1CC2)c1ccccc1 (stereo unspecified) | inactive: 2.2%
COc1cccc(C(c2nnnn2C2CCCC2)N2CCC(n3c(=O)[nH]c4ccccc43)CC2)c1OC (stereo unspecified) | inactive: -0.51%
COc1cc(OC)cc(C(=O)NCC2(N3CCOCC3)CCCCC2)c1 | inactive: -0.44%
COc1cccc(C(=O)N(c2cc(C)cc(C)c2)C2CCN(C(=O)OC(C)(C)C)CC2)c1 | inactive: 0.38%
Cc1ccc(NC2(C#N)CCN(Cc3ccccc3)CC2)cc1 | inactive: 0.96%
Cc1ccc(C(=O)NCC2(N3CCCCC3)CCCCC2)o1 | inactive: -1.01%
Fc1ccccc1NC1CCN(Cc2ccccc2)CC1 | inactive: -1.77%
COc1cc(OC)cc(C(=O)NCC2(N3CCCCC3)CCCCC2)c1 | inactive: -3.62%
O=c1[nH]c2ccccc2n1C1CCN(C(c2ccnc3ccccc23)c2nnnn2C2CCCCC2)CC1 (stereo unspecified) | inactive: 3.98%
COc1cccc(C(c2nnnn2C2CCCCC2)N2CCC(n3c(=O)[nH]c4ccccc43)CC2)c1OC (stereo unspecified) | inactive: 7.56%
CC(=O)N(c1ccccc1)C1CCNCC1 | inactive: 1.71%
CCC(c1nnnn1C1CCCCC1)N1CCC(n2c(=O)[nH]c3ccccc32)CC1 (stereo unspecified) | inactive: 2%
O=C(NCC1(N2CCCCC2)CCCCC1)c1ccco1 | inactive: 2.79%

Compound | inhibition
CN(C)c1ccc(C(=O)NCC2(N3CCCCC3)CCCCC2)cc1 | inactive: -2.08%
Cn1c(=O)[nH]cc(N(CCCl)CCCl)c1=O | inactive: -6.97%
Cc1ccccc1NC1(C#N)CCN(Cc2ccccc2)CC1 | inactive: 0%
COc1ccc(C(c2nnnn2C2CCCCC2)N2CCC(n3c(=O)[nH]c4ccccc43)CC2)cc1 (stereo unspecified) | inactive: 0.88%
CCN1CCC(Nc2cccc(F)c2)CC1 | inactive: 0.9%
CC(C)(C)n1nnnc1C(c1ccnc2ccccc12)N1CCC(n2c(=O)[nH]c3ccccc32)CC1 (stereo unspecified) | inactive: -0.7%
CC(C)(C)OC(=O)N1CCC(N(C(=O)c2ccccc2)c2ccc(Cl)cc2)CC1 | inactive: 2.01%
N#Cc1ccc(C(=O)NCC2(N3CCCCC3)CCCCC2)cc1 | inactive: 4.9%
CC(C)(C)n1nnnc1C(c1cccc2ccccc12)N1CCC(n2c(=O)[nH]c3ccccc32)CC1 (stereo unspecified) | inactive: -1.98%
C/C(N)=N\P(=O)(Oc1ccccc1)Oc1ccccc1 | inactive: 0%
c1ccc(CN2CCC(Nc3ccccc3)CC2)cc1 | inactive: 5.26%
CCCN1CCC(Nc2cc(OC)cc(OC)c2)CC1 | inactive: 2.34%
O=c1[nH]c2ccccc2n1C1CCN(C(c2ccccc2)c2nnnn2C2CCCC2)CC1 (stereo unspecified) | inactive: -1.38%
Cc1cc(N(CCCl)CCCl)ccc1C=O | inactive: 2.62%
CN(C)C1(CNC(=O)c2cccc(C#N)c2)CCCCC1 | inactive: -1.07%
COc1ccc(C(=O)NCC2(N3CCOCC3)CCCCC2)cc1OC | inactive: -1.28%
O=c1[nH]c2ccccc2n1C1CCN(C(c2ccnc3ccccc23)c2nnnn2C2CCCC2)CC1 (stereo unspecified) | inactive: 0.18%
O=c1[nH]c2ccccc2n1C1CCN(C(c2cccs2)c2nnnn2C2CCCCC2)CC1 (stereo unspecified) | inactive: 2.31%
NC(=O)C1(Nc2ccccc2)CCN(Cc2ccccc2)CC1 | inactive: 1.09%
O=C(NCC1(N2CCOCC2)CCCCC1)c1cc(Br)ccc1Cl | inactive: 3.75%
CCCCn1nnnc1C(c1ccccc1)N1CCC(n2c(=O)[nH]c3ccccc32)CC1 (stereo unspecified) | inactive: -2.21%

Compound | inhibition
COc1cc(C(=O)NCC2(N3CCOCC3)CCCCC2)cc(OC)c1C | inactive: 11.2%
CCCCn1nnnc1C(c1cccc(OC)c1OC)N1CCC(n2c(=O)[nH]c3ccccc32)CC1 (stereo unspecified) | inactive: 14.2%
O=C(OC1CN2CCC1CC2)C1c2ccccc2C=Cc2ccccc21 (stereo unspecified) | inactive: -2.31%
O=c1[nH]c2ccccc2n1C1CCN(C(c2cccs2)c2nnnn2C2CCCC2)CC1 (stereo unspecified) | inactive: -0.64%
N/C(=N\O)c1c(N)no[n+]1[O-] | inactive: -0.02%
CCOC(=O)N1CCC(Nc2ccc(C)cc2)CC1 | inactive: 0.19%
COc1cccc(C(c2nnnn2C(C)(C)C)N2CCC(n3c(=O)[nH]c4ccccc43)CC2)c1OC (stereo unspecified) | inactive: 1.07%
CCCCn1nnnc1C(c1ccnc2ccccc12)N1CCC(n2c(=O)[nH]c3ccccc32)CC1 (stereo unspecified) | inactive: 0.56%
COc1cc(OC)c(C(=O)NCC2(N(C)C)CCCCC2)cc1OC | inactive: 4.06%
CCC(c1nnnn1C(C)(C)C)N1CCC(n2c(=O)[nH]c3ccccc32)CC1 (stereo unspecified) | inactive: 0.57%
O=C(NCC1(N2CCOCC2)CCCCC1)c1cc(F)c(F)cc1Cl | inactive: -0.47%
COc1ccc(CN(CCCl)CCCl)cc1Cl | inactive: 5.43%
COC(=O)C1(Nc2ccccc2)CCN(Cc2ccccc2)CC1 | inactive: 3.14%
CN(C)c1cccc(C(=O)NCC2(N3CCCCC3)CCCCC2)c1 | inactive: -1.19%
CC(C)c1ccc(NC2CCN(C(=O)OC(C)(C)C)CC2)cc1 | inactive: -3.04%
Cc1ccc(C(=O)NCC2(N(C)C)CCCCC2)o1 | inactive: -0.58%
CCCOc1ccc(C(=O)NCC2(N(C)C)CCCCC2)cc1OC | inactive: 0.84%
COc1ccc(C(c2nnnn2C2CCCC2)N2CCC(n3c(=O)[nH]c4ccccc43)CC2)cc1 (stereo unspecified) | inactive: 16.7%
CN1CCC(Nc2cccc(F)c2)CC1 | inactive: -0.96%
